Data published in PubChem BioAssay AID2524 (Sanford-Burnham Center for Chemical Genomics, 2010).
The list shows a part of the results, in another mix than the full data. Some tests of the compounds listed are not included; inactive here does not mean inactive elsewhere. Calls of active or inactive are those of the source.

The chains behind the UniProt entries cited, without tags or fusion partners.
UniProt P09923, whole entry: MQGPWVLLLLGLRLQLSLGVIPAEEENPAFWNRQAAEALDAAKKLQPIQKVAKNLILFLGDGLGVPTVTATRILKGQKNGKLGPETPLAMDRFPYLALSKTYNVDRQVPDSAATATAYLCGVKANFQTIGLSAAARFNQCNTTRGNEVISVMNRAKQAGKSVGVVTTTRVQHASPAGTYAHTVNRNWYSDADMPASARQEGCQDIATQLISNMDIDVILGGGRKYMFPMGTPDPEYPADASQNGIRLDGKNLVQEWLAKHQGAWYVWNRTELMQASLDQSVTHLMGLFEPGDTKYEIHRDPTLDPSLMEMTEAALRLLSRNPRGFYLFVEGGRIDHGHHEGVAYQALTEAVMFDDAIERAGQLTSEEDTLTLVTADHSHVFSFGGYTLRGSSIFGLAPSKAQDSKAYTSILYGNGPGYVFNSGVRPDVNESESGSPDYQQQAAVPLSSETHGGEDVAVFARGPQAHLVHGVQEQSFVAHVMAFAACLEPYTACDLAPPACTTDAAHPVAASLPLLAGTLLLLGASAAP

Each compound was assayed against Intestinal-type alkaline phosphatase (Homo sapiens) (UniProt P09923) (assay: enzymatic activation of intestinal alkaline phosphatase – biochemical, luminescence, uHTS, primary screen (AID 2524)). Settings: purified human IAP, CDP-Star luminescence, 30 min; at 10 µM; hits give high values; 1 = vehicle-only enzyme, 0 = enzyme-free background.

Structure (SMILES) | activation factor
COc1cc(C(=O)NCC2(N(C)C)CCCCC2)c([N+](=O)[O-])cc1OC | inactive: 1.12
CN(C)C1(CNC(=O)c2ccc(Br)cc2)CCCCC1 | inactive: 1.1
O=C(NCC1(N2CCCCC2)CCCCC1)c1cccc(Cl)c1 | inactive: 1.01
COc1ccc(Cl)cc1C(=O)NCC1(N(C)C)CCCCC1 | inactive: 1.04
COc1cccc(C(=O)NCC2(N3CCCCC3)CCCCC2)c1 | inactive: 0.972
O=C(OC1CN2CCC1CC2)C(CO)(c1ccccc1)c1ccccc1 (centres undefined) | inactive: 0.961
CN(C)c1cccc(C(=O)NCC2(N(C)C)CCCCC2)c1 | inactive: 1.09
CC(C)Oc1ccc(C(=O)NCC2(N(C)C)CCCCC2)cc1 | inactive: 1.14
COc1ccc(Br)c(C(=O)NCC2(N3CCCCC3)CCCCC2)c1 | inactive: 1.02
CN1[C@@H]2CC[C@H]1CC(OC(=O)C(O)(c1ccccc1)c1ccccc1)C2 (some centres undefined) | inactive: 0.866
O=C(NCC1(N2CCCCC2)CCCCC1)c1cc([N+](=O)[O-])ccc1Cl | inactive: 0.982
Cc1ccc(C(=O)NCC2(N3CCCCC3)CCCCC2)cc1 | inactive: 0.92
CC(C)N1C(=O)CC2(CCN(CCOC(=O)C(O)(c3ccccc3)c3ccccc3)CC2)C1=O | inactive: 0.713
COc1cc(SC)ccc1C(=O)NCC1(N(C)C)CCCCC1 | inactive: 1.07
CCN(CC)CC(C)C(C)OC(=O)C(O)(c1ccccc1)c1ccccc1 (centres undefined) | inactive: 1.02
CN(C)C1CCCC1OC(=O)C(O)(c1ccccc1)c1ccccc1 (centres undefined) | inactive: 1.04
CN(C)c1ccc(C(=O)NCC2(N(C)C)CCCCC2)cc1 | inactive: 1.09
Cc1ccccc1C(=O)NCC1(N2CCCCC2)CCCCC1 | inactive: 1.02
O=C(NCC1(N2CCCCC2)CCCCC1)c1cccc(Br)c1 | inactive: 1.3
Cc1cc(C(=O)NCC2(N3CCCCC3)CCCCC2)ccc1[N+](=O)[O-] | inactive: 0.919
CCN1CCCC(OC(=O)C2(O)c3ccccc3C=Cc3ccccc32)C1 (centres undefined) | inactive: 0.989
COc1ccc(C(=O)NCC2(N(C)C)CCCCC2)cc1 | inactive: 0.938
O=C(NCC1(N2CCCCC2)CCCCC1)c1cc(F)c(F)cc1Cl | inactive: 1.02
C=CCN1CCN(CCOC(=O)C(O)(c2ccccc2)c2ccccc2)CC1 | inactive: 1.05
